In brackets after ≈: the same amount, converted by molar mass.
Legend:
kinetic solubility = type: physicochemical; details: PBS
HeLa Kyoto cells = details: 50 μM, ref 4 (Scott DE et al); cited from earlier work

- kinetic solubility (kinetic solubility): 171 ± 5 µM (≈ 90.5 µg/mL)
SMILES: COc1ccc([C@H](C)NC(=O)[C@@H]2C[C@@H](O)CN2C(=O)CNC(=O)c2ccc3cc(F)ccc3n2)c(Cl)c1
- % HR inhibition (HeLa Kyoto cells): > 90%

From article PMC12907944, “Targeting RAD51-BRCA2 Interaction to Enhance Synthetic Lethality with Olaparib in Pancreatic Cancer: Development of a Novel Phenyl Furan-Quinoline-Carboxylic Acid Series” (ACS Medicinal Chemistry Letters, 2026)
